pIC50: −log10 of the molar value.
Target: T1, NAD-dependent protein deacetylase sirtuin-1 (Homo sapiens, UniProt Q96EB6)
T1 sequence (Q96EB6 whole entry): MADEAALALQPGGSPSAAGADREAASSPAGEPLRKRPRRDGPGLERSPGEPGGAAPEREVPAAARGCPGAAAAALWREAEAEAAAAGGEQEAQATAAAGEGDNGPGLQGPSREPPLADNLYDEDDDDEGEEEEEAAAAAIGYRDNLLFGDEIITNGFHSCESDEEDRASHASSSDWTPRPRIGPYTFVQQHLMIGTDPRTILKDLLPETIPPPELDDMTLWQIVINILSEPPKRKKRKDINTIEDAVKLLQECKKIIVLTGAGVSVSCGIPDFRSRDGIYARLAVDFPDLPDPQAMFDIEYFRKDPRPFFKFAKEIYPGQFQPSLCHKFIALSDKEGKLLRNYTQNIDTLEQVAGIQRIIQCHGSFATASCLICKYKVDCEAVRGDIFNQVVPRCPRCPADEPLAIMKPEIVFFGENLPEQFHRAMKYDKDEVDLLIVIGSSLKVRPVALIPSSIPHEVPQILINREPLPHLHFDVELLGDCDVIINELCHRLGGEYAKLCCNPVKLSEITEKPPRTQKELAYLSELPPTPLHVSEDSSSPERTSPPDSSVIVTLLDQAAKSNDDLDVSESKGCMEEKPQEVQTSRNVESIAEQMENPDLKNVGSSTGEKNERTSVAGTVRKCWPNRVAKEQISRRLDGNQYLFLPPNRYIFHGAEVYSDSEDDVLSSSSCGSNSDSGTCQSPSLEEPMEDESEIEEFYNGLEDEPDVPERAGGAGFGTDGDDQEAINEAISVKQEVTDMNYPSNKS
Experiment: Inhibition of human full length SIRT1 expressed in DE3 cells by fluorimetric assay
Format: cell-based

Compound `Cn1cc(C2=C(c3cn(CCCSC(=N)N)c4ccccc34)C(=O)NC2=O)c2ccccc21` [BISINDOLYLMALEIMIDE IX] has a pIC50 of 4.60.
In the case of `O=C1CCc2c(ccc3ccccc23)O1` [SPLITOMICIN], the pIC50 was < 3.30.

Source: ChEMBL document CHEMBL1152589, “Identification and characterization of novel sirtuin inhibitor scaffolds” (Bioorg Med Chem, 2009)
